Laboratory results taken from paper PMC11743672, “Characterization of the ligand-binding properties of odorant-binding protein 38 from Riptortus pedestris when interacting with soybean volatiles” (Frontiers in Physiology, 2025).

By UniProt entry, the sequences of proteins in these tests, tags left out.
UniProt A0A2Z4HQ26, entry or part of it: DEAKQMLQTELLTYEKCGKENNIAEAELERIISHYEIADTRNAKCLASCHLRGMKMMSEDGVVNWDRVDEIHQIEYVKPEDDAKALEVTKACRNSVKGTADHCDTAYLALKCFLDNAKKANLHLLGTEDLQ

Molecular target: RpedOBP38 (Riptortus pedestris, UniProt A0A2Z4HQ26)
Experiment: Fluorescence competitive binding assay (1-NPN displacement)
From the text: Recombinant RpedOBP38 binding to putative chemical ligands was characterized with a microplate reader (BioTek Synergy H1, United States). Fluorescence intensity values at the excitation wavelength of 337 nm and a maximum fluorescence emission wavelength of 450 nm were plotted against the free concentration of ligand for the measurement of dissociation constants, selecting candidate ligands from among 36 volatile compounds that included 11 green leaf volatiles ([Chen et al., 2018]; [Guo and Wang, 2019]; [Cheng et al., 2020]; [Hong et al., 2022]; [Tang et al., 2023]; [Zhu et al., 2023]), 11 soybean volatiles ([Wang et al., 2019a]; [Zhu et al., 2022]), 10 repellent activity volatiles ([Zhang et al., 2013]; [Zhang et al., 2014]), and 4 aggregation pheromone compounds ([Leal et al., 1995]; [Yasuda et al., 2007]). HPLC-grade methanol was used for the dissolution of the probe N-phenyl-1-naphthylamine (1-NPN) and all ligands. The ability of RpedOBP38 to bind 1-NPN was assessed by using 10 mM PBS (pH 7.4) to prepare a 2 μM purified protein solution, titrating with 1 mM 1-NPN in methanol to prepare final concentrations from 2–20 μM. RpedOBP38 binding to each ligand was evaluated in a solution consisting of 2 μM purified protein and 1-NPN, followed by titration through the addition of ligands until no further decrease in the fluorescence intensity was observed. […]

(+)-α-pinene
IC50 (2 μM recombinant RpedOBP38 and 1-NPN, PBS pH 7.4, three replicates): > 40 µM | Ki (Ki = [IC50]/(1 + [1-NPN]/K1-NPN), 2 μM protein and 1-NPN, Ki > 40 considered weak binding): > 40 µM
